Source: BindingDB's records for doi:10.1021/jm0500875 (Pfizer, 2005)

Tests used:
Collagenase 3 = Collagenase 3 (Homo sapiens, UniProt P45452); assay: Enzyme Inhibition Assay
Interstitial collagenase = biological target: T1, Interstitial collagenase (Homo sapiens, UniProt P03956); assay: Enzyme Inhibition Assay; settings: pH 7.5; 25 °C
T1 sequence (P03956 whole entry): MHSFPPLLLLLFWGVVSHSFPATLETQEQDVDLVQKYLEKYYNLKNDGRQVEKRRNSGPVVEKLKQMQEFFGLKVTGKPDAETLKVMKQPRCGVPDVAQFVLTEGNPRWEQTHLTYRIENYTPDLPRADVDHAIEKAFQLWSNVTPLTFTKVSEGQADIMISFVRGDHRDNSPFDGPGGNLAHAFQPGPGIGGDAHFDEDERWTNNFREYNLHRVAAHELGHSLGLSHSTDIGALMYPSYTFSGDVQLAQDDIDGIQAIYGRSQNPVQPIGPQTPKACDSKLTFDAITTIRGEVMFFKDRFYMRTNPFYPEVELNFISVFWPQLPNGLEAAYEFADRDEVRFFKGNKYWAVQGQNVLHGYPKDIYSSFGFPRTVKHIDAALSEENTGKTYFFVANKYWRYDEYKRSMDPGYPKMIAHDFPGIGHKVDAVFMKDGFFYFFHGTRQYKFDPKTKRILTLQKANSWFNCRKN

SMILES: O=C(NO)C1(S(=O)(=O)c2ccc(Oc3ccc(Cl)cc3)cc2)CCOCC1 [4-{[4-(4-chlorophenoxy)benzene]sulfonyl}-N-hydroxyoxane-4-carboxamide]
- Ki (Collagenase 3): 0.15 nM
- Ki (Interstitial collagenase): 435 nM
